Reference: ChEMBL document CHEMBL2177019, “Carbamate derivatives of indolines as cholinesterase inhibitors and antioxidants for the treatment of Alzheimer's disease” (J Med Chem, 2012)

Chains of the proteins cited; added tags and fusions are not shown.
UniProt Q9N1N9, whole entry: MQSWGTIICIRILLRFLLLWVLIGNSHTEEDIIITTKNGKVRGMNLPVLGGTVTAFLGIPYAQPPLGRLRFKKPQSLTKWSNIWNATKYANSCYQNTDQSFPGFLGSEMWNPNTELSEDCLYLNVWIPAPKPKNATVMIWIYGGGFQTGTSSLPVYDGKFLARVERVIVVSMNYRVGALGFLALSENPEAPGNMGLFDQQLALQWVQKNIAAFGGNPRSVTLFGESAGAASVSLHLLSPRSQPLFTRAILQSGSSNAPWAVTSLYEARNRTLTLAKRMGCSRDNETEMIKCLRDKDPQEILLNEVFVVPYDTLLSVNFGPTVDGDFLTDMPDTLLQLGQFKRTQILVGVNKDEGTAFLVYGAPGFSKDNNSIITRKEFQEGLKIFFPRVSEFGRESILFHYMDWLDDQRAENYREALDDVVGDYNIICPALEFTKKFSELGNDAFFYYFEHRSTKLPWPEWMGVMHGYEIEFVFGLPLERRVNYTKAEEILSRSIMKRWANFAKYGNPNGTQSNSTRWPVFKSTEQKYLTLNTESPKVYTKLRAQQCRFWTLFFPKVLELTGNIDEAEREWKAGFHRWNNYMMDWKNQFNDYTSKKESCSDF

Biological target: Butyrylcholinesterase (Equus caballus, UniProt Q9N1N9)
Experiment: Inhibition of equine BuChE after 120 mins by Ellman's method

CCN(C)C(=O)Oc1cccc([C@H](C)N(C)C)c1 [RIVASTIGMINE]
IC50: 160 nM
